# Experiments:
# Protein sequences, listed by entry. Tags and fused reporters are not part of them. Residues count along the entry.
# UniProt O75460, 547-977 limits assumed: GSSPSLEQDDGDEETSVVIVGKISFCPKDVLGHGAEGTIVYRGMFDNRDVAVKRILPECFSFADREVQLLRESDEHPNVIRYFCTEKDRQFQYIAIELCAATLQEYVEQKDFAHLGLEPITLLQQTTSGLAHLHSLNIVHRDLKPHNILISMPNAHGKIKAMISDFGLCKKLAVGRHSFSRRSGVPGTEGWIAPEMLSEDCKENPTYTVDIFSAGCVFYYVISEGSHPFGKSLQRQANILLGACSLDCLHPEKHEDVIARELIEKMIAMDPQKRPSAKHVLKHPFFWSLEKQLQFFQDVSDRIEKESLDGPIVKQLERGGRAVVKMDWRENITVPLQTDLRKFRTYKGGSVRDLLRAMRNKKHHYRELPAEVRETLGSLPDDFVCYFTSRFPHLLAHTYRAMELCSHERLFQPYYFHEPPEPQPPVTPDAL
# UniProt Q9EQY0, 21-977 limits assumed: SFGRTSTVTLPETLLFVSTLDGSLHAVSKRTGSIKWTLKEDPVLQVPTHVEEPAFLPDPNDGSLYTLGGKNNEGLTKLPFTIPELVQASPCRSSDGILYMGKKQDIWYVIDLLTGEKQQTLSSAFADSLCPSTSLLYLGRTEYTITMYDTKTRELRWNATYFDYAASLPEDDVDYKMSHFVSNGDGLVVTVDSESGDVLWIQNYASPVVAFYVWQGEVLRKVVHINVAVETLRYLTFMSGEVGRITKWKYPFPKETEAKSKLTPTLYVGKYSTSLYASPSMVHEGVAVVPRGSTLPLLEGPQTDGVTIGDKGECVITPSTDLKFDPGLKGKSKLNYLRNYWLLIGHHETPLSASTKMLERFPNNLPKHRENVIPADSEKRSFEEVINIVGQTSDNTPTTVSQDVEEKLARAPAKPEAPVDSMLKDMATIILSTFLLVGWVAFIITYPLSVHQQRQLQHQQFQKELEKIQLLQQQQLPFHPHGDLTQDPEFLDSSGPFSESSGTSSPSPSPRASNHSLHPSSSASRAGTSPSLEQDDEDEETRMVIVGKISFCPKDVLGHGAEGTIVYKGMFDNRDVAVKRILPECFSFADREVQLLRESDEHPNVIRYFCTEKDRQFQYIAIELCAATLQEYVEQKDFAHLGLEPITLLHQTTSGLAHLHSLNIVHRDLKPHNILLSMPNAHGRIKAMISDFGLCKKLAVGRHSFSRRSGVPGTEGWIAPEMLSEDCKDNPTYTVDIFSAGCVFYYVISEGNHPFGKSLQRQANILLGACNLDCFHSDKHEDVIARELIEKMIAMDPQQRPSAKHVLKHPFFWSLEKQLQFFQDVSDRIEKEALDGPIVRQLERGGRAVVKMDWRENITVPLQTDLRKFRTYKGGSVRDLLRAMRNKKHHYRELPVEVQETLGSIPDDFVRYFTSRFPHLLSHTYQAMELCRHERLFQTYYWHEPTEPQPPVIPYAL
# recombinant hIRE-1 = recombinant hIRE-1 (Homo sapiens (Human), UniProt O75460); experiment: In vitro IRE-1 RNase FRET-suppression assay; type: biochemical; conditions: read-out: IC50 in FRET-suppression assay; 5 nM hIRE-1, 50 nM XBP-1 RNA
# IRE-1 = IRE-1 (Mus musculus (Mouse), UniProt Q9EQY0); experiment: Pull-down of IRE-1 from mouse B cell lysates with biotin-tagged derivative; conditions: anti-biotin antibody on protein G-conjugated agarose beads
# XBP-1s expression = experiment: Inhibition of XBP-1s expression in LPS-stimulated mouse B cells (immunoblots); type: cell-based; conditions: LPS 48 h, then inhibitor 20 μM for 24 h (Example 3 prints 20 mM)
# XBP-1 mRNA splicing = XBP-1 mRNA splicing by RT-PCR; type: cell-based, human; conditions: MEC1 and MEC2 cells, 20 μM, 48 h
Compound,IC50 (recombinant hIRE-1),pull-down of IRE-1 (in words) (IRE-1),inhibition of XBP-1s expression (in words) (XBP-1s expression),inhibition of XBP-1 mRNA splicing and XBP-1s expression (in words) (XBP-1 mRNA splicing)
O=Cc1c(O)ccc2c3c(c(=O)oc12)CN(C(=O)CCCCCNC(=O)CCCC[C@@H]1SC[C@@H]2NC(=O)N[C@@H]21)CC3,136 nM,can pull down IRE-1,–,–
O=Cc1c(O)ccc2c3c(c(=O)oc12)CNCC3,–,–,potently suppress,can inhibit splicing of XBP-1 mRNA and expression of XBP-1s

# — patent US10323013B2, “Inhibitors of the IRE-1/XBP-1 pathway and methods of using thereof” (H. LEE MOFFITT CANCER CENTER AND RESEARCH INSTITUTE, INC., priority 2013, dated 2019)
